Literature values as cited in article PMC5465209 (Scientific Reports, 2017).

Test system: secretion of insulin
Conditions: cited from earlier work
Text: An important mechanism whereby calcineurin promotes the activation of T cells and the induction of cytokine-related genes is largely attributed to a family of transcriptional regulators that are referred to as NFAT. The immunosuppressants cyclosporine A and FK506, which are used clinically to prevent transplant rejection, inhibit the activity of calcineurin phosphatase on all its protein substrates, including NFAT[1], [2]. Although these drugs have revolutionized transplant therapy, their use is associated with the progressive loss of the renal function, hypertension, hyperglycemia, neurotoxic ...

CC[C@H](C)[C@H](NC(=O)[C@@H](NC(=O)[C@@H]1CCCN1C(=O)[C@H](Cc1c[nH]cn1)NC(=O)[C@@H]1CCCN1C(=O)CNC(=O)[C@H](C)NC(=O)[C@H](CCSC)NC(=O)CNC(=O)CNC(=O)[C@H](CCCNC(=N)N)NC(=O)[C@H](CCCNC(=N)N)NC(=O)[C@H](CCCNC(=N)N)NC(=O)[C@H](CCCNC(=N)N)NC(=O)[C@H](CCCNC(=N)N)NC(=O)[C@H](CCCNC(=N)N)NC(=O)[C@H](CCCNC(=N)N)NC(=O)[C@H](CCCNC(=N)N)NC(=O)[C@H](CCCNC(=N)N)NC(=O)[C@H](CCCNC(=N)N)NC(=O)[C@@H](N)CCCNC(=N)N)C(C)C)C(=O)N[C@H](C(=O)N[C@H](C(=O)N[C@H](C(=O)NCC(=O)N1CCC[C@H]1C(=O)N[C@@H](Cc1c[nH]cn1)C(=O)N[C@@H](CCC(=O)O)C(=O)N[C@@H](CCC(=O)O)C(=O)O)[C@@H](C)O)[C@@H](C)CC)C(C)C [11R-VIVIT]
Secretion of insulin: did not affect the secretion of insulin
